Results taken from ChEMBL document CHEMBL1155020, “Trithiocarbonates as a novel class of HDAC inhibitors: SAR studies, isoenzyme selectivity, and pharmacological profiles” (J Med Chem, 2008).

How the values were obtained:
[1] = system: HEK293; assay: Selectivity for recombinant HDAC6 expressed in HEK293 cells to recombinant HDAC1 expressed in HEK293 cells; format: cell-based
[2] = system: HEK293; assay: Selectivity for nuclear HDAC isolated from human HeLa cells to recombinant HDAC1 expressed in HEK293 cells; format: cell-based

`CCSC(=S)SCC(=O)c1ccc(NC(=O)Nc2ccccc2)cc1` gave a Ratio IC50 [1] of 30 and a Ratio IC50 [2] of 470.
